From the supplement of paper PMC10290057

Tested on: HCT116
Assay: efficacy (fitted maximal change in viability relative to DMSO control); higher = less cytotoxic (negative = loss of viability)
Settings: 48 h
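Also: Luminescence-based viability readout, five doses per compound, normalized against on-plate DMSO and empty-well controls, followed by dose-response curve fitting for every drug.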

## NCc1ccc(OCCCc2sc(-c3ccc4c(c3)/C(=N/Nc3nc5ccccc5s3)CCC4)nc2C(=O)O)cc1 [WEHI-539]
  efficacy: 9.49%
